Measured values taken from ChEMBL document CHEMBL4813984, “An original pronucleotide strategy for the simultaneous delivery of two bioactive drugs” (Eur J Med Chem, 2021).

Tests used:
[1] = Stability of compound in human CEM-SS cell extract assessed as half life
[2] = Stability of compound in RPMI 1640 culture medium containing 10% heat-inactivated fetal calf serum assessed as half life; details: cattle

**Q.** What does the source list for `Cc1cn([C@H]2C[C@H](N=[N+]=[N-])[C@@H](COP(=O)(Nc3ccn([C@H]4CC[C@@H](CO)O4)c(=O)n3)OCCSC(=O)C(C)(C)C)O2)c(=O)[nH]c1=O` (some centres not stated)?
**A.** t1/2 [1]: 2.3 h; t1/2 [2]: 165 h
